# From patent US4649911A, “Small particle aerosol generator for treatment of respiratory disease including the lungs” (Baylor College of Medicine, priority 1986, dated 1987)
# Legend:
# [1] = at discharge; both treated and control; P=0.01
structure (smiles),measurement,setting,value
NC(=O)c1ncn([C@@H]2O[C@H](CO)[C@@H](O)[C@H]2O)n1 [ribavirin],concentration of ribavirin in aerosol,"FIG. 3 apparatus, 20 mg per ml in reservoir, at initiation of generation",160 micrograms per liter
same,concentration of ribavirin in the nebulizer flask,"FIG. 7 apparatus, 300 ml volume, initial",31 mg per ml
same,reticulocyte counts,[1],lowering of reticulocyte counts
